In general, Kd refers to a measure of binding affinity in units of concentration. Low values mean a tighter complex, high ones a looser complex.

By UniProt entry, the sequences of proteins in these tests, tags left out. Where a name states a change or a piece, a line headed by the entry shows the natural chain unless it says otherwise.
UniProt O43924: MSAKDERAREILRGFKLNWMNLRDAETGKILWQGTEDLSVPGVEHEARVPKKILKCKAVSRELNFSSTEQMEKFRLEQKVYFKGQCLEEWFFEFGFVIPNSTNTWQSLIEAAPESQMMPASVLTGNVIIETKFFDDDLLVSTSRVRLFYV

SMILES strings stand for the structures.

This assay addresses Retinal rod rhodopsin-sensitive cGMP 3',5'-cyclic phosphodiesterase subunit delta (Homo sapiens, UniProt O43924).

Compound `c1ccc(Cn2c(-c3ccc(OC[C@H](C4CCNCC4)n4c(-c5ccccc5)nc5ccccc54)cc3)nc3ccccc32)cc1` showed a Kd of less than 10 nM.

For the origin of these results see ChEMBL document CHEMBL4616722, “Discovery of Novel PDEδ Degraders for the Treatment of KRAS Mutant Colorectal Cancer” (J Med Chem, 2020).
